Data: patent US9028810B2, “Composition for inducing migration of neural stem cells containing periostin as effective ingredient” (Ajou University Industry—Academic Cooperations Foundatin, priority 2010, dated 2015)

System: neural stem cells
Assay: In vitro migration assay using ERK pathway and CDK5 pathway inhibitors
Type: cell-based, human
Conditions: 20 nM inhibitor, 12 hours
From the text: It has been reported that, in the development of the central nervous system, neural stem cells migrate from the subventricular zone to cortex through radial glial cells using the ERK (extracellular signal regulated kinase) and CDK5 signaling pathways, and in the neuronal migration, DCX participated in nucleus translocation, neucleokinesis (Niethammer et al., 2000).
Cultured neural stem cells were detached with 0.05% trypsin, washed with DMEM medium and re-suspended in DMEM medium, after which 5×10^4 cells were inoculated into an upper chamber (Costar Transwell) in 200 μl of 10% FBS-containing DMEM medium.
After 12 hours, in order to determine the number of cells that migrated from the upper chamber through a 8-μm porous polycarbonate membrane to the lower portion of the membrane in response to the stimulation of the lower chamber, the migrated neural stem cells were stained with hematoxylin & eosin and counted.

In the case of `CC[C@H](CO)Nc1nc(NCc2ccccc2)c2ncn(C(C)C)c2n1` [roscovitine], the “migration of neural stem cells in control group not treated with periostin” value is reported as “inhibited”.
